Molecules are shown by their SMILES.

A short description of this experiment: Binding affinity to P-glycoprotein assessed as efflux ratio.

Consider `COc1nc(Nc2cccc3c2nc(-c2ccc(F)cc2)n3C)ccc1-n1cnc(C)c1`, for which the Ratio stood at 0.5.

For the origin of these results see ChEMBL document CHEMBL2176900, “Design and synthesis of a novel series of bicyclic heterocycles as potent γ-secretase modulators” (J Med Chem, 2012).
